According to patent US20170073337A1, “DIHYDROTHIAZINE AND DIHYDROOXAZINE DERIVATIVES HAVING BACE1 INHIBITORY ACTIVITY” (Shionogi & Co., Ltd., priority 2014, published 2017):

How the values were obtained:
[1] = tested on: Aβ production in neuroblastoma SH-SY5Y cells (SH/APPwt); test: β-amyloid (Aβ) production inhibitory effect in cell: 96-well; assay type: cell-based; conditions: Homo sapiens, read-out: IC50 value
Experimental: Neuroblastoma SH-SY5V cells (SH/APPwt) with human wild-type R-APP excessively expressed therein were prepared at 8×10^5 cells/mL, and 150 μl portions thereof were inoculated into each well of a 96-well culture plate (Falcon). The cells were cultured for 2 hours at […]. in a 5% gaseous carbon dioxide incubator. […] Namely, the final DMSO concentration was 1%, and the amount of the cell culture was 200 μl. After the incubation was performed for 24 hours from the addition of the test compound, 100 μl of the culture supernatant was collected from each fraction. The amount of the Aβ in each fraction was measured. The Aβ amount was measured as follows. 10 μl of a homogeneous time resolved fluorescence (HTRF) measurement reagent (Amyloid β1-40 peptide: CIS bio international) and 10 μof the culture supernatant were put into a 384-well half area microplate (black microplate, Costar) and mixed with each other, and then left standing overnight at 4° C. while the light was shielded.

[2] = tested on: Aβ production in neuroblastoma SH-SY5Y cells (SH/APPwt); test: β-amyloid (Aβ) production inhibitory effect in cell: 384-well; assay type: cell-based; conditions: Homo sapiens, read-out: IC50 value
Experimental: Neuroblastoma SH-SY5Y cells (SH/APPwt) with human wild-type β-APT excessively expressed therein were prepared at 4×10^5 cells/mL, and 50 μl portions thereof were inoculated into each well of a 384-well culture plate (Corning) added 0.5 μl of the test compound of the present invention (DMSO solution). The final DMSO concentration was 1%, and the amount of the cell culture was 50 μl. After the incubation was performed for 21 hours from the cell seeding, 5 μl of the culture supernatant was collected from each fraction. The amount of the Aβ in each fraction was measured.
The Aβ amount was measured as follows. 5 μl of a homogeneous time resolved fluoresrenee (HTRF) measurement reagent (Amyloid β1-40 peptide; CIS bio international) and 5 μl of the culture supernatant were put into a 384′well plate (a black plate: Corning) and mixed with each other, and then left standing overnight at 4° C. while the light was shielded. Then, the fluorescence intensity (620 nm and 665 nm) was measured with EnViston (Perkin Elmer life sciences).

| Compound | IC50 [1] [nM] | IC50 [2] [nM] |
| --- | --- | --- |
| C[C@H]1SC(N)=N[C@](C)(c2cc(NC(=O)c3cnc(OCF)cn3)ccc2F)[C@H]1F [Compound I-9] | 0.235 |  |
| C[C@@H]1SC(N)=N[C@](C)(c2cc(NC(=O)c3cnc(OCF)cn3)ccc2F)[C@@H]1F [Compound I-112] |  | 50 |
